The nature of assay [1]: viability loss in pontine glioma line – cell-based, SU-DIPG-XVII, MIPE5.0, CellTiter-Glo, qHTS, dose response (AID 1347060).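 Further: cells exposed to compound for 48 hours before viability readout.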 As to conditions: CellTiter-Glo ATP luminescence. For orientation: ATP-based viability assays read luminescence as a measure of living cells.
A short description of assay [2]: viability loss in pontine glioma line – cell-based, SU-DIPG-XXV, MIPE5.0, CellTiter-Glo, qHTS, dose response (AID 1347065).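 Further: cells exposed to compound for 48 hours before ATP readout.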 As to conditions: CellTiter-Glo ATP luminescence.
Assay [3] is described as follows: JHH-DIPG-1 glioma cell viability, MIPE5.0 library, CellTiter-Glo luminescence, qHTS (AID 1347067).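 Further: cells exposed to compound for 48 hours before readout.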 As to conditions: JHH-DIPG-1 glioma viability, CellTiter-Glo ATP luminescence.
Assay [4] in a line: viability loss in pontine glioma line – cell-based, SU-DIPG-XIII, MIPE4.0, CellTiter-Glo, qHTS, dose response (AID 1347061; cut-off not given, nearly all actives have AC50 up to about 37 µM;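 further: cells exposed to compound for 48 hours before readout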). The settings on record: CellTiter-Glo ATP luminescence.
A short description of assay [5]: viability loss in pontine glioma line – cell-based, JHH-DIPG-1, MIPE4.0, CellTiter-Glo, qHTS, dose response (AID 1347062; cut-off not given, nearly all actives have AC50 up to about 27 µM). The settings on record: JHH-DIPG-1 viability, CellTiter-Glo ATP luminescence.
The nature of assay [6]: viability loss in pontine glioma line – cell-based, SU-DIPG-IV, MIPE4.0, CellTiter-Glo, qHTS, dose response (AID 1347063; cut-off not given, nearly all actives have AC50 up to about 30 µM;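 further: compound exposure lasted 48 hours before the viability readout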). The settings on record: CellTiter-Glo ATP luminescence.
Assay [7] is described as follows: growth inhibition of DIPG cells – cell-based, MIPE4.0 library, CellTiter-Glo luminescence, qHTS (AID 1347066; cut-off not given, nearly all actives have AC50 up to about 30 µM;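 further: cells exposed to compound for 48 hours before readout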). The settings on record: SU-DIPG-VI viability, CellTiter-Glo ATP luminescence.

Each structure is given as a SMILES string. The list shows a part of the results, in another mix than the full data. Inconclusive results are not listed. The source made the active and inactive calls. Unless noted, cut-off not given; nearly all actives show AC50 up to about 26 µM.

By AC50 is commonly meant the midpoint of the concentration-response curve, whichever way the signal moves.

Turning to `N[C@@H](Cc1ccc([N+]([O-])(CCCl)CCCl)cc1)C(=O)O`, the concentration at half-maximal activity (AC50) is active: 11.8 µM in assay [1], active: 26.3 µM in assay [2] and active: 2.95 µM in assay [3].
Consider `CN(C)C1(c2ccccc2)CCC2(CC1)OCCc1c2[nH]c2ccc(F)cc12` (stereo not given), for which the concentration at half-maximal activity (AC50) is active: 5.9 µM in assay [1], active: 9.34 µM in assay [2] and active: 8.33 µM in assay [3].
Take `CCn1c(=O)n([C@@H]2CCN(CC3CCCCCCC3)C[C@H]2CO)c2ccccc21`: the compound was called inactive in assay [4], in assay [5], in assay [6] and in assay [7].

The values above are taken from PubChem BioAssay.
